The assay addresses T1, TS (Homo sapiens, UniProt P04818).
T1 construct: made in house; host or cells: E. coli BL21 (DE3)
The assay can be described thus: Folate dependent enzyme assay, TMP response (LC-MS). It is filed as biochemical. How it is done: The human MTHFD2 (accession number: NM_006636.3) and MTHFD2L (accession number: NM_001144978.1) cDNAs were synthesized at GenScript. […] Bacterial BL21 (DE3) (Novagen) was used as an expression host, and protein purification is described in supplemental material.
Catalytic activity was assayed under the listed reaction conditions using a liquid chromatograph and either fluorescence or mass spectrometric detection as indicated. Reactions were carried out at RT for the reaction times given. The % response was fit to a four-parameter logistic equation using ACTIVITYBASE 4.0 to determine IC50 values.

Sequences of proteins named here, by UniProt entry; tags and fusion partners are left off. A change or cut given only in a name is not applied to a line headed by its entry.
UniProt P04818: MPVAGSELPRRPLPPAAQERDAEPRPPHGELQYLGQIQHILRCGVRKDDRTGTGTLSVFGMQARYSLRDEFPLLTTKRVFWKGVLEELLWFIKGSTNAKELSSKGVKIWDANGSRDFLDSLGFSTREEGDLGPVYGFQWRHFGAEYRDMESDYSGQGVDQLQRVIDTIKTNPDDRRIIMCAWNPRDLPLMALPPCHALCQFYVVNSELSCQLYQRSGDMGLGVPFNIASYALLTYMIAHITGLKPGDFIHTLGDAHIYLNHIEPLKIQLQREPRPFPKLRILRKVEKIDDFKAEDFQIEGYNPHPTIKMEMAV

Regarding `Nc1nc2[nH]cc(CCc3ccc(C(=O)N[C@@H](CCC(=O)O)C(=O)O)cc3)c2c(=O)[nH]1` [pemetrexed], the IC50 (as a rule, the concentration that gives 50% inhibition) turned out to be 580 nM. That is a sub-micromolar value.

Values taken from publication PMC6193938, “Characterization of a novel AICARFT inhibitor which potently elevates ZMP and has anti-tumor activity in murine models” (Scientific Reports, 2018).
